The IC50 is the midpoint of a concentration-inhibition curve.

Like-named read-outs stand apart in the source and are kept apart here.

11 compounds from patent US8431563B2 (priority 2010, dated 2013) can be followed below.

Assay in all cases: biochemical
The target in experiment [1] is T1, GKRP (Glucokinase Regulatory Protein) with human His-hepatic GK (Homo sapiens, UniProt Q14397).
T1 sequence (Q14397 1-625): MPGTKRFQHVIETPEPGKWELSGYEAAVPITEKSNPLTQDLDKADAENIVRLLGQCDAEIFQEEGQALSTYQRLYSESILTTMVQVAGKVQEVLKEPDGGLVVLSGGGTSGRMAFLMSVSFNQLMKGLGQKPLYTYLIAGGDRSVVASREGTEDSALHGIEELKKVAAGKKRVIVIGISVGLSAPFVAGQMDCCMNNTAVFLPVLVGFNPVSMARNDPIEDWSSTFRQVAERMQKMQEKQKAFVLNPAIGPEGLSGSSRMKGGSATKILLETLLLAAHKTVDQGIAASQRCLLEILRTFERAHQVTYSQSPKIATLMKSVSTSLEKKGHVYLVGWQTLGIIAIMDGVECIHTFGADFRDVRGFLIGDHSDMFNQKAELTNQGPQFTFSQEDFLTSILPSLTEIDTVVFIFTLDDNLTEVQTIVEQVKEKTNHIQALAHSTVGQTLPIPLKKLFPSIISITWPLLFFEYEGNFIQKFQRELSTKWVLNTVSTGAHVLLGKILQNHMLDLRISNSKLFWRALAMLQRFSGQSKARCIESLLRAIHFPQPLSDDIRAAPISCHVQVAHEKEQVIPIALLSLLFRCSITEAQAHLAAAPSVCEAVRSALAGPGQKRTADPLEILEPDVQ
As to conditions: 13C-glucose-6-phosphate formation; 280 nM GKRP (10×), 30 nM GK (5×); read-out: GK-GKRP EC50 (LC MS/MS-2).

In experiment [2] the target is T2, GK-GKRP (Homo sapiens, UniProt Q14397).
T2 sequence (Q14397 1-625): T1 sequence (Q14397 1-625)
To be noted: GK-GKRP IC50 (Binding).

Experiment [3] concerns the target T2, GK-GKRP.
Experiment [4] has as its target T3, interaction between glucokinase (GK) and glucokinase regulatory protein (GKRP) (Homo sapiens, UniProt Q14397).
T3 sequence (Q14397 1-625): T1 sequence (Q14397 1-625)
The format is binding. To be noted: avi-tagged GKRP, GK-fluorescein, AlphaScreen beads. Background: Bead proximity is the source of the signal in Alpha formats.

[5] abbreviates: read-out: GK-GKRP IC50 (Binding).

`Nc1ncc(S(=O)(=O)N2CCN(c3ccc(C(O)(C(F)(F)F)C(F)(F)F)cc3)CC2)cn1` [Example 96, 2-(4-(4-((2-amino-5-pyrimidinyl)sulfonyl)-1-piperazinyl)phenyl)-1,1,1,3,3,3-hexafluoro-2-propanol]: the EC50 in experiment [1] was 518 nM.
With `CC#CC1CN(S(=O)(=O)c2cccs2)CCN1c1ncc(C(C)(O)C(F)(F)F)cn1` (mixture of isomers), the IC50 on GK-GKRP [2] was 19 nM. Besides, the EC50 on GK-GKRP [3] is 50 nM.
Take `Nc1ncc(S(=O)(=O)N2CCN(c3ccc(C(O)(C(F)(F)F)C(F)(F)F)cc3)CC2)cc1F` [Example 97, 2-(4-(4-((6-amino-5-fluoro-3-pyridinyl)sulfonyl)-1-piperazinyl)phenyl)-1,1,1,3,3,3-hexafluoro-2-propanol]: the EC50 in experiment [1] was 299 nM.
As to `O=S(=O)(c1cccc(O)c1)N1CCN(c2ccc(C(O)(C(F)(F)F)C(F)(F)F)cc2)CC1` [Example 105, 3-((4-(4-(2,2,2-trifluoro-1-hydroxy-1-(trifluoromethyl)ethyl)phenyl)-1-piperazinyl)sulfonyl)phenol], the IC50 in experiment [4] (GK-GKRP IC50 (Binding)) came to 949 nM.
For the compound `O=S(=O)(c1cscc1Br)N1CCN(c2ccc(C(O)(C(F)(F)F)C(F)(F)F)cc2)CC1` [Example 169, 2-(4-(4-(4-bromothiophen-3-ylsulfonyl)piperazin-1-yl)phenyl)-1,1,1,3,3,3-hexafluoro-2-propanol], in experiment [4] (setting [5]), the 50% inhibitory concentration (IC50) amounted to 816 nM.
For the compound `Nc1ccccc1S(=O)(=O)N1CCN(c2ccc(C(O)(C(F)(F)F)C(F)(F)F)cc2)CC1` [Example 165, 2-(4-(4-(2-aminophenylsulfonyl)piperazin-1-yl)phenyl)-1,1,1,3,3,3-hexafluoro-2-propanol], the IC50 in experiment [4] (setting [5]) came out at 298 nM. Moreover, the EC50 in experiment [1] came to 552 nM.
As to `Nc1ccc(S(=O)(=O)N2CCN(c3ccc(C(O)(C(F)(F)F)C(F)(F)F)cc3)CC2)cn1` [Example 91, 2-(4-(4-((6-amino-3-pyridinyl)sulfonyl)-1-piperazinyl)phenyl)-1,1,1,3,3,3-hexafluoro-2-propanol], the EC50 in experiment [1] was 142 nM.
Compound `Nc1ccc(S(=O)(=O)N2CCN(c3ccc(C(O)(C(F)(F)F)C(F)(F)F)cc3)CC2)cc1F` [Example 104, 2-(4-(4-((4-amino-3-fluorophenyl)sulfonyl)-1-piperazinyl)phenyl)-1,1,1,3,3,3-hexafluoro-2-propanol] displayed an IC50 in experiment [4] (GK-GKRP IC50 (Binding)) of 999 nM.
Compound `Nc1ccc(S(=O)(=O)N2CCN(c3ccc(C(O)(C(F)(F)F)C(F)(F)F)cc3)CC2)c(N)c1` [Example 261, 2-(4-(4-((2,4-diaminophenyl)sulfonyl)-1-piperazinyl)phenyl)-1,1,1,3,3,3-hexafluoro-2-propanol] returned an IC50 at GK-GKRP [2] of 277 nM.
For the compound `Nc1ccc(S(=O)(=O)N2CCN(c3ccc(C(O)(C(F)(F)F)C(F)(F)F)cc3)CC2)c(N)n1` [Example 166, 2-(4-(4-(2,6-diaminopyridin-3-ylsulfonyl)piperazin-1-yl)phenyl)-1,1,1,3,3,3-hexafluoro-2-propanol], in experiment [4] (setting [5]), the IC50 stood at 299 nM. The EC50 in experiment [1] worked out at 262 nM.
As to `Nc1ccncc1S(=O)(=O)N1CCN(c2ccc(C(O)(C(F)(F)F)C(F)(F)F)cc2)CC1` [Example 260, 2-(4-(4-((4-amino-3-pyridinyl)sulfonyl)-1-piperazinyl)phenyl)-1,1,1,3,3,3-hexafluoro-2-propanol], on GK-GKRP [2], the IC50 is 591 nM.
